Results reported in paper PMC8348983 (International Journal of Molecular Sciences, 2021).

By UniProt entry, the sequences of proteins in these tests, tags left out. Residues count along the entry.
UniProt P22303, 32-614: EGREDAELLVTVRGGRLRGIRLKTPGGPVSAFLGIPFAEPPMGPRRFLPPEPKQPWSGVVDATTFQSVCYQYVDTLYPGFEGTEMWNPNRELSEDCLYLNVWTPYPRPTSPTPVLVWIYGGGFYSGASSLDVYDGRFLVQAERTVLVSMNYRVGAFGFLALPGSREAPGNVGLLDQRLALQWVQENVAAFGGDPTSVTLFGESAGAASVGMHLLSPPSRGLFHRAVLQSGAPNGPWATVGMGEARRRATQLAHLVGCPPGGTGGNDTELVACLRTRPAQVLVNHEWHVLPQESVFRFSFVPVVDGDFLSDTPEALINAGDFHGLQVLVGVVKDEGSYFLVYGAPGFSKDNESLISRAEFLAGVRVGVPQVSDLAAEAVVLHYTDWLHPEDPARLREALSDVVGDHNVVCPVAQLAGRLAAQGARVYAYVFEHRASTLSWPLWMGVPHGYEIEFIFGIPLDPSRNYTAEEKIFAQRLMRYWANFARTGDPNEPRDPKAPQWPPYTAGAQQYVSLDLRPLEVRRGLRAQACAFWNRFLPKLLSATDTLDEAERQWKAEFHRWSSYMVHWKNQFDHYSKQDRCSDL
UniProt P06276, 29-602: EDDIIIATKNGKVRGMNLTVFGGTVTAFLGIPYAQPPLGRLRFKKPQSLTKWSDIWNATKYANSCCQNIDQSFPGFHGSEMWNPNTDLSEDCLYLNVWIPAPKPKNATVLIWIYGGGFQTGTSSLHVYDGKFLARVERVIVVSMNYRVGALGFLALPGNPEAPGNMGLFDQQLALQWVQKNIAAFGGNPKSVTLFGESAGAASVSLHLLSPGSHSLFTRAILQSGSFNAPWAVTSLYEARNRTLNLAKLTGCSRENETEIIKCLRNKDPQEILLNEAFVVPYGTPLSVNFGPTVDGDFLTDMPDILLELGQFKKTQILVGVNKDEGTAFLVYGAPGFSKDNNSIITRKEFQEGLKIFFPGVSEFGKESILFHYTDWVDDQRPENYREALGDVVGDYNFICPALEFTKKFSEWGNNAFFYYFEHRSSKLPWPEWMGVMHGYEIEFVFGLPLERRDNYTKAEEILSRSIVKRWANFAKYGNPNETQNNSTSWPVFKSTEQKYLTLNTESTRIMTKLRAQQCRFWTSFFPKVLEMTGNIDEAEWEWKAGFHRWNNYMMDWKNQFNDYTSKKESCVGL

What was measured:
human recombinant AChE = human recombinant AChE (Homo sapiens, UniProt P22303); type: biochemical; settings: 100 µM
human plasma BChE = molecular target: T1, human plasma BChE (Homo sapiens, UniProt P06276); type: biochemical; settings: 100 µM
T1 construct: was used as a source of BChE and was prepared from heparinized human blood; from tissue; host or cells: human plasma from heparinized human blood

CNC(=O)Oc1ccc2c(c1)[C@]1(C)CCN(C)[C@@H]1N2C [eserine, reference compound]
%Inhibition hAChE ± SEM (human recombinant AChE): 99.8 ± 0.6% | % Inhibition hBuChE ± SEM (human plasma BChE): 99.9 ± 0.5%
